## scFv variants of Ab-91 (heavy chain) against a SARS-CoV-2 spike peptide

All variants were tested on one target, the spike HR2 peptide PDVDLGDISGINAS (SARS-CoV-2).

Ab-91 is the parent antibody, in scFv form: VL, then the linker GGGGSGGGGSGGGGS, then VH. The light chain is unchanged in all variants.
VL: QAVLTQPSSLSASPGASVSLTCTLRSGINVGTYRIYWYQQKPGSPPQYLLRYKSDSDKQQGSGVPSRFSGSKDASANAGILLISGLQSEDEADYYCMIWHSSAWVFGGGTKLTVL
VH: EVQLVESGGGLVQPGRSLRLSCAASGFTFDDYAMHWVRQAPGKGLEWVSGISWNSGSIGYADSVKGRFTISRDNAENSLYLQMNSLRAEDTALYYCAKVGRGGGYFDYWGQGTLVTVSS

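In library AAYL51, one, two or three CDR residues were substituted; doubles and triples were drawn at random. The scFvs were displayed on barcoded MATa yeast, the peptide on MATalpha yeast. Mating (16 h, 30 °C) was followed by selection of diploids and sequencing of their barcodes. Scores were corrected for input abundance and mapped to Kd with protein pairs of known affinity run in the same pool. The assay was run in three technical replicates.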

Variants are written as CDR1, CDR2 and CDR3 of the heavy chain (limits as in the source). Parent: GFTFDDYAMH, GISWNSGSIGYADSVK, VGRGGGYFDY.
This list gathers variants with a substitution at S63 (VH, numbered from residue 1).
Each Kd is an estimate from the mating assay, the geometric mean of the replicates in which the pair was seen; lower is stronger.
An entry "nd" has no value in the source: the pair was not observed among the diploids in any replicate. This suggests poor binding but is not conclusive.

The variant GFTFDQYAMH | GISWNSGSIGYADVVK | VGRGGGYFDY showed 99 nM (2 of 3 replicates; controls 0 of 9). The variant GFTFDDYAMH | GISWNSGAIGYQDGVK | VGRGGGYFDY showed 410 nM (1 of 3 replicates; controls 0 of 9). The variant GFTFDDYAMH | GISSNSGSIGYADQVK | IGRGGGYFDY gave 460 pM (3 of 3 replicates; controls 1 of 9). With GFTFDDYAMH | GISWNSGSIGYADPVG | VGWGGGYFDY the result was 82 µM (3 of 3 replicates; controls 5 of 9). The variant GFTFDDYAMH | GISWNSGSIGYADCVK | VGRGGGIFDY gave 1.0 µM (3 of 3 replicates; controls 5 of 9). The variant GFTFDDYAMH | GIHWNSGSIGYADDVK | VGRGGGHFDY showed 7.1 µM (1 of 3 replicates; controls 0 of 9). For GETFDDYAMH | GISWNPGSIGYADHVK | VGRGGGYFDY, the assay gave 130 µM (1 of 3 replicates; controls 3 of 9). The variant GFTFDDYAMH | GISWNSASIGYANYVK | VGRGGGYFDY gave 930 µM (2 of 3 replicates; controls 5 of 9).

With GFTFDDYAMH | GISWNSGSIGYADWVK | VGRGGGYFDY the result was 5.5 nM (3 of 3 replicates; controls 6 of 9). The variant GYTFDDYAMH | GISWNSGWIGYADEVK | VGRGGGYFDY gave 84 µM (1 of 3 replicates; controls 0 of 9). With GNTFKDYAMH | GISWNSGSIGYADMVK | VGRGGGYFDY the result was nd (0 of 3 replicates; controls 1 of 9). The variant GETDDDYAMH | GISWNSGSIGYADIVK | VGRGGGYFDY gave nd (0 of 3 replicates; controls 4 of 9). The variant GFTFDDYAMH | GISWNSGTIGYRDDVK | VGRGGGYFDY showed 1.1 µM (3 of 3 replicates; controls 4 of 9). With GFTFDDYAMH | GISWQSGSINYADVVK | VGRGGGYFDY the result was nd (0 of 3 replicates; controls 0 of 9). The variant NSTFDDYAMH | GISWNSGSIGYADRVK | VGRGGGYFDY showed nd (0 of 3 replicates; controls 3 of 9). For GFTFDDYAMH | GISWNSGSIGYADGVK | IGRGGGYFDK, the assay gave 1.5 nM (3 of 3 replicates; controls 5 of 9).

The variant GFTFDDYAMK | GISWNRGSIGYADKVK | VGRGGGYFDY showed nd (0 of 3 replicates; controls 0 of 9). The variant GFTFDDYAMH | GISWNSGSIGYADGVK | VGRGGGYFDY showed 6.4 µM (1 of 3 replicates; controls 0 of 9). For GFTFDDYAMH | GISWNSGSIGYADWVK | VWRGGGWFDY, the assay gave 270 nM (3 of 3 replicates; controls 5 of 9). With GFTFDDYASH | GISWNSGSIGYADVVK | VGRGGGYFDY the result was nd (0 of 3 replicates; controls 7 of 9). With GFTFDDYAMH | GASWNSGSIGYADRVK | DGRGGGYFDY the result was 5.1 µM (1 of 3 replicates; controls 1 of 9). For GFTFDDYAMH | GISWQSGMIGYADTVK | VGRGGGYFDY, the assay gave 190 nM (3 of 3 replicates; controls 1 of 9). The variant GFTFDDYAMH | GISWNSGSIGYMDIVK | VGRGGGYFDK gave 1.4 µM (3 of 3 replicates; controls 0 of 9). The variant GFTFDDYAMH | GISWNYGSIGWADLVK | VGRGGGYFDY gave 59 µM (2 of 3 replicates; controls 1 of 9).

With GFTFDDYAMH | GISWNSGSIGYKDRVK | VGRGGGYFTY the result was nd (0 of 3 replicates; controls 1 of 9). With GFTFDDYAMH | GISWNSGSIGYALAVK | IGRGGGYFDY the result was 93 nM (3 of 3 replicates; controls 3 of 9). For GFTFDDYAMH | GISWNSGSCGYADGVK | VGRGGGYFDY, the assay gave nd (0 of 3 replicates; controls 0 of 9). The variant GFSFDDYAMH | GISWNSGSIMYADCVK | VGRGGGYFDY gave 77 µM (3 of 3 replicates; controls 7 of 9). The variant GFTFDDHAMH | GISWNSGSIGYADLVK | VGRGGGYHDY showed 290 µM (2 of 3 replicates; controls 2 of 9). The variant GDTFDDYAMH | GISWNSGSIGYADAVK | VGRGGGYFRY gave 22 µM (1 of 3 replicates; controls 1 of 9). The variant GFTFDDYAMH | GMSWNSGSIGYADHVK | WGRGGGYFDY gave 80 µM (2 of 3 replicates; controls 6 of 9). With GPTFDDSAMH | GISWNSGSIGYADHVK | VGRGGGYFDY the result was nd (0 of 3 replicates; controls 3 of 9).

The variant GFTFQDYAMH | GISWNSGSIGHADGVK | VGRGGGYFDY gave 440 nM (3 of 3 replicates; controls 4 of 9). For GFTFDDYAMH | GISWNSGSIGCADYVK | VGRKGGYFDY, the assay gave nd (0 of 3 replicates; controls 1 of 9). The variant GFTFDDYAMH | GISWNSSSIGYADQPK | VGRGGGYFDY showed nd (0 of 3 replicates; controls 1 of 9). The variant GFTFDDYAMH | GISWNSGSIGYTDKVK | GGRGGGYFDY showed 170 nM (3 of 3 replicates; controls 1 of 9). The variant GFTFRDYAMH | GISWNSGSIGYADFVK | VGRGGGYFDY gave 640 nM (3 of 3 replicates; controls 5 of 9). The variant MFTFDDYAMH | GISWNSGSIGYADDWK | VGRGGGYFDY gave 260 µM (1 of 3 replicates; controls 4 of 9). For GFTFDDVAMH | GISYNSGSIGYADFVK | VGRGGGYFDY, the assay gave 14 nM (3 of 3 replicates; controls 1 of 9). With GFTFDDYAMH | GISWNSGSIGYADRVK | VGRGFGWFDY the result was 410 nM (3 of 3 replicates; controls 0 of 9).

With GFTFDDYAMH | GISWNSGSIGYADCVK | HGRGDGYFDY the result was 130 µM (1 of 3 replicates; controls 0 of 9). The variant GFTFDDYAMH | GISWNSYSIGYDDNVK | VGRGGGYFDY showed 1.3 µM (3 of 3 replicates; controls 4 of 9). For GFTMDDYAMH | GIKWNSGSIGYADVVK | VGRGGGYFDY, the assay gave nd (0 of 3 replicates; controls 1 of 9). The variant GFTFDDYAWH | GISWNSGSIGYPDKVK | VGRGGGYFDY showed nd (0 of 3 replicates; controls 0 of 9). For GFTFDDYAMH | GISWNSGSIVYACMVK | VGRGGGYFDY, the assay gave 50 µM (2 of 3 replicates; controls 4 of 9). With GFCFDDYAMH | EISWNSGSIGYADVVK | VGRGGGYFDY the result was nd (0 of 3 replicates; controls 0 of 9). The variant GFTFDDYAMH | GISWNSGSIGYADLVK | VVRGGGYFDY showed 73 µM (1 of 3 replicates; controls 2 of 9). With GFTFDLYAMH | GISWNSGSIGYADDVK | VGRGGGYFDY the result was 27 µM (2 of 3 replicates; controls 4 of 9).

The variant GFTFDDYAMG | GISWNSGSIGYADDVK | VGRGGRYFDY gave 1.6 mM (1 of 3 replicates; controls 4 of 9). The variant GFTFDDYAMH | GLSWNSGSIGYADDVK | VGTGGGYFDY gave 2.4 µM (3 of 3 replicates; controls 2 of 9).

Again, the first 7 entries without any signal:

{"CDR-H1": "GNTFKDYAMH", "CDR-H2": "GISWNSGSIGYADMVK", "CDR-H3": "VGRGGGYFDY", "apparent Kd": "nd", "seen in": "0 of 3", "empty controls": "1 of 9"}
{"CDR-H1": "GETDDDYAMH", "CDR-H2": "GISWNSGSIGYADIVK", "CDR-H3": "VGRGGGYFDY", "apparent Kd": "nd", "seen in": "0 of 3", "empty controls": "4 of 9"}
{"CDR-H1": "GFTFDDYAMH", "CDR-H2": "GISWQSGSINYADVVK", "CDR-H3": "VGRGGGYFDY", "apparent Kd": "nd", "seen in": "0 of 3", "empty controls": "0 of 9"}
{"CDR-H1": "NSTFDDYAMH", "CDR-H2": "GISWNSGSIGYADRVK", "CDR-H3": "VGRGGGYFDY", "apparent Kd": "nd", "seen in": "0 of 3", "empty controls": "3 of 9"}
{"CDR-H1": "GFTFDDYAMK", "CDR-H2": "GISWNRGSIGYADKVK", "CDR-H3": "VGRGGGYFDY", "apparent Kd": "nd", "seen in": "0 of 3", "empty controls": "0 of 9"}
{"CDR-H1": "GFTFDDYASH", "CDR-H2": "GISWNSGSIGYADVVK", "CDR-H3": "VGRGGGYFDY", "apparent Kd": "nd", "seen in": "0 of 3", "empty controls": "7 of 9"}
{"CDR-H1": "GFTFDDYAMH", "CDR-H2": "GISWNSGSIGYKDRVK", "CDR-H3": "VGRGGGYFTY", "apparent Kd": "nd", "seen in": "0 of 3", "empty controls": "1 of 9"}

Empty control strains, which show no peptide, gave a signal in 21% of pairings with library AAYL51; the median was 34 µM and 95% of these signals were weaker than 1.8 µM. No background was subtracted. For each scFv, signals with the empty controls are counted beside the result.
Parent in this assay: reference entry 72 nM, copy in this library 7.5 nM.

Reference: Engelhart et al. 2022, doi:10.1038/s41597-022-01779-4. File: FLAb, binding data.